Inhibition data for 25 molecules are collected here from PubChem BioAssay AID1779 (Sanford-Burnham Center for Chemical Genomics, 2009).

Chains of the proteins cited; added tags and fusions are not shown.
UniProt Q9Y2R2, whole entry: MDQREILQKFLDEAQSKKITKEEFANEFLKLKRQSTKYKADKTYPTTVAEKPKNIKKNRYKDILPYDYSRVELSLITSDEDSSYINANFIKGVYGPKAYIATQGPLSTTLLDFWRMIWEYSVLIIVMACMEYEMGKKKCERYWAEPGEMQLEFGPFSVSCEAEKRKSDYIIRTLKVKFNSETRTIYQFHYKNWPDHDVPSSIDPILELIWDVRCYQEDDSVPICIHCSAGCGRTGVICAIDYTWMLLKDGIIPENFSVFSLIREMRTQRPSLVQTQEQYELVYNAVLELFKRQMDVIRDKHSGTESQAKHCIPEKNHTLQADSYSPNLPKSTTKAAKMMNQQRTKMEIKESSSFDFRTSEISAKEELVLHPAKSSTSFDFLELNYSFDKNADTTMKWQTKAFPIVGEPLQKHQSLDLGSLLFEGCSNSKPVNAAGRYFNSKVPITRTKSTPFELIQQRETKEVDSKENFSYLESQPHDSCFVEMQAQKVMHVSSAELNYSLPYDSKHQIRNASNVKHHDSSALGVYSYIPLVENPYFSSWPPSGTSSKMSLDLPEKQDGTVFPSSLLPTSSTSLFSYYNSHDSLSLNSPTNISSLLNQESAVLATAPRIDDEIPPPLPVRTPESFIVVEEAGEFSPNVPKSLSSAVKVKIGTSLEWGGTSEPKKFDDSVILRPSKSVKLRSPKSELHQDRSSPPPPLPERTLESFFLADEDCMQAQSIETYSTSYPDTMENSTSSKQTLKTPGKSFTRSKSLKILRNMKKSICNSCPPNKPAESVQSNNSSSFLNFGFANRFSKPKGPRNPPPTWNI

One may read the inhibition as the drop in the measured response relative to a control, in per cent.

SMILES strings stand for the structures. Only a part is listed here, and it is no random draw. The source made the active and inactive calls. Rule as the data show it: active = inhibition above about 50%; inactive = the rest.

This assay deals with Tyrosine-protein phosphatase non-receptor type 22 (Homo sapiens) (UniProt Q9Y2R2). Put plainly: PTPN22 lymphoid phosphatase activity blockers – biochemical, fluorescence intensity, uHTS (AID 1779).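 Also: plate controls were vehicle with enzyme for no effect and no enzyme for full effect.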 The following applies: recombinant LYP phosphatase, at 11.5 µM, active compounds read high.
On to `Cc1ccc(C)c(NP(C)(=O)Oc2ccccc2)c1` (stereo not given), for which the inhibition was inactive: -6.6%. For `O=C(O)c1cccc(Nc2c([N+](=O)[O-])cc([N+](=O)[O-])cc2[N+](=O)[O-])c1`, the inhibition was inactive: 0.6%. In the case of `CC1=NCCc2c1[nH]c1ccccc21.O=[N+]([O-])c1cc([N+](=O)[O-])c(O)c([N+](=O)[O-])c1` it was inactive: -1.4%; in that of `CC(C)(C)c1ccc(OP(C)(=O)Nc2ccc(SC(F)(F)F)cc2)cc1` (stereo not given), inactive: 10.4%. The value for `Cc1cccc(C)c1OP(C)(N)=O` (stereo not given) was inactive: -10.6%; that for `O=[N+]([O-])c1ccc2c(c1)C=Nc1ccccc1O2` was inactive: 2.6%; that for `COc1ccccc1OP(C)(=O)Nc1cc(Cl)ccc1C` (stereo not given) was inactive: -4.5%. The value for `COc1ccc(OP(C)(=O)Nc2cccc(F)c2)cc1` (stereo not given) was inactive: -1.4%; that for `Cc1cc(C)cc(OP(C)(N)=O)c1` (stereo not given) was inactive: -4.5%; that for `CCOC(=O)c1ccc(NP(C)(=O)Oc2ccccc2)cc1` (stereo not given) was inactive: -6.3%. Regarding `COc1ccccc1OP(C)(=O)Nc1ccc(C)cc1` (stereo not given), the inhibition was inactive: -5%. In the case of `Cc1ccc(NP(C)(=O)Oc2ccccc2)c(C)c1` (stereo not given) it was inactive: -2.9%. The value for `CCN(CC)CCCOC(=O)C(O)(c1ccccc1)c1ccccc1` was inactive: -1.4%; that for `CCc1ccc(OP(C)(=O)N2CCN(c3ccc([N+](=O)[O-])cc3)CC2)cc1` (stereo not given) was inactive: -7.7%.

In the case of `CP(=O)(NC(=O)Nc1ccccc1)Oc1ccccc1` (stereo not given), the inhibition is inactive: -8.1%. The value for `Cc1cc(C)cc(OP(C)(=O)Nc2ccc(SC(F)(F)F)cc2)c1` (stereo not given) was inactive: 1.9%; that for `CP(=O)(Nc1ccc(SC(F)(F)F)cc1)Oc1ccc(Cl)cc1` (stereo not given) was inactive: 1.6%. In the case of `Cc1cccc(C)c1OP(C)(=O)Nc1ccc(SC(F)(F)F)cc1` (stereo not given) it was inactive: 4.5%; in that of `CP(=O)(Oc1ccccc1)OC(c1ccccc1)C(F)(F)F` (stereo not given), inactive: -1.1%; in that of `CP(=O)(Nc1ccccn1)Oc1ccc(Cl)cc1` (stereo not given), inactive: -11.1%. In the case of `CCOP(C)(=S)SCC(=O)NC(C)C(=O)O` (stereo not given) it was inactive: -4.4%. For the molecule `CCOC(=O)c1ccc(NP(C)(=O)Oc2ccc(OC)cc2)cc1` (stereo not given), the inhibition was inactive: -9.5%. In the case of `COc1ccccc1OP(C)(=O)Nc1ccccc1` (stereo not given) it was inactive: -7.2%; in that of `CP(=O)(Nc1ccccc1Br)Oc1ccccc1` (stereo not given), inactive: -7.2%; in that of `CP(=S)(Nn1cnnc1)Oc1ccccc1` (stereo not given), inactive: -10%.
